MIC data for 1 compound are collected here from paper PMC9673142, “1,3-Diarylpyrazolyl-acylsulfonamides Target HadAB/BC Complex in Mycobacterium tuberculosis” (ACS Infectious Diseases, 2022).

In brackets after ≈: the same amount, converted by molar mass.

The test concerns Mtb H37Rv. The test is described as follows: microbe, parasite or virus in culture. The class given is cell-based. The conditions noted are these: Mycobacterium tuberculosis, read-out: Mtb MIC.

Regarding `CS(=O)(=O)NC(=O)NCc1cn(-c2ccc(C(F)(F)F)nc2)nc1-c1ccncc1` [Compound 11], the MIC is 1.2 µM (≈ 0.528 µg/mL).
